Measurements taken from PMC6667604, “Mechanism of action of antimicrobial peptide P5 truncations against Pseudomonas aeruginosa and Staphylococcus aureus” (AMB Express, 2019).
Converted amounts (≈) assume the structure as drawn.

What was measured:
[1] = test system: S. aureus ATCC 25923; assay type: cell-based, Staphylococcus aureus; conditions: MHB, 2 × 10^5 CFU/mL, 18 h at 37 °C, absorbance 600 nm, triplicate
Protocol: (§1) We detected the antimicrobial activity of peptides against Gram-negative bacteria (P. aeruginosa ATCC 27853 and A. baumannii KCTC 2508) and Gram-positive bacteria (S. aureus ATCC 25923 and B. subtilis KCTC 2217). The minimum inhibitory concentrations (MICs) of the parental and truncated peptides were determined using the microbroth dilution method, as previously described (Jorgensen [1993]). The bacteria were incubated overnight with shaking at 37 °C. The bacteria were diluted to 2 × 10^5 colony forming units (CFU)/mL in Mueller–Hinton broth (MHB) media. The peptides were serially diluted in 10 mM sodium phosphate buffer and then 50 µL of the bacteria and 50 µL of the peptide solutions were mixed and incubated for 18 h at 37 °C. The MICs were measured as the absorbance at 600 nm using a Versa Max microplate reader (Molecular Devices, Sunnyvale, CA, USA). The samples were analyzed in triplicate.

[2] = test system: red blood cells (RBCs) from mice; test: Hemolytic activity; assay type: cell-based; conditions: mouse RBCs 8% in PBS, peptide 12.5 µM, 1 h at 37 °C, absorbance 414 nm
Protocol: To determine the hemolytic activities of the peptides against red blood cells (RBCs) from mice, RBCs were centrifuged at 2000×g for 5 min and washed with 1 mL of phosphate-buffered saline solution (PBS) three times. The supernatant was removed and the RBCs were diluted to 8% in PBS. After serial dilution, 60 µL of the RBCs and peptides were added to a 96-well plate and incubated at 37 °C for 1 h. The plate was centrifuged at 1500×g for 10 min, 100 µL of the supernatant was transferred to a new plate, and the absorbance was measured at 414 nm (Versa-Max enzyme-linked immunosorbent assay (ELISA) reader). Additionally, 0.1% Triton X-100 and PBS were used as positive and negative controls, respectively. The hemolytic activity percentage (hemolysis rate) was calculated using the following equation (Han et al. [2016]): Hemolysis percentage%=peptide solution-negative control/positive control-PBS×100.

[3] = test system: P. aeruginosa ATCC 27853; assay type: cell-based, Pseudomonas aeruginosa; conditions: MHB, 2 × 10^5 CFU/mL, 18 h at 37 °C, absorbance 600 nm, triplicate
Protocol: as §1

CC[C@H](C)[C@H](NC(=O)CN)C(=O)NCC(=O)N[C@@H](C)C(=O)N[C@H](C(=O)N[C@@H](CC(C)C)C(=O)N[C@@H](CCCCN)C(=O)N[C@H](C(=O)N[C@@H](CC(C)C)C(=O)N[C@H](C(=O)N[C@H](C(=O)NCC(=O)N[C@@H](CC(C)C)C(=O)N1CCC[C@H]1C(=O)N[C@@H](C)C(=O)N[C@@H](CC(C)C)C(=O)N[C@H](C(=O)N[C@@H](CO)C(=O)N[C@@H](Cc1c[nH]c2ccccc12)C(=O)N[C@H](C(=O)N[C@@H](CCCCN)C(=O)N[C@@H](CCCNC(=N)N)C(=O)N[C@@H](CCCCN)C(=O)N[C@@H](CCCNC(=N)N)C(=O)N[C@@H](CCC(N)=O)C(=O)N[C@@H](CCC(N)=O)C(N)=O)[C@@H](C)CC)[C@@H](C)CC)[C@@H](C)O)[C@@H](C)O)C(C)C)C(C)C [Melittin, reference compound]
MIC [1]: 0.78 µM (≈ 2.22 µg/mL)
hemolysis [2]: approximately 91%
MIC [3]: 3.13 µM (≈ 8.91 µg/mL)
